Each block holds one molecule with its values, some of them ahead of it.
Key:
[1] = target: Sodium-dependent dopamine transporter (Homo sapiens, UniProt Q01959); settings: at 10 µM
[2] = target: Inhibitor of nuclear factor kappa-B kinase subunit alpha (Homo sapiens) (UniProt O15111); settings: at 1 µM
[3] = tested on: Tyrosine-protein kinase ABL1 (Homo sapiens), P00519 [Q252H]; settings: at 1 µM
[4] = target: Proto-oncogene tyrosine-protein kinase receptor Ret (Homo sapiens) (UniProt P07949); settings: at 3 µM
[5] = target: Vascular endothelial growth factor receptor 1 (Homo sapiens, UniProt P17948); settings: at 20 µM
[6] = target: Rhodopsin kinase GRK7 (Homo sapiens) (UniProt Q8WTQ7); settings: at 1 µM
[7] = target: Protein kinase C alpha type (Homo sapiens) (UniProt P17252); settings: at 1 µM
[8] = target: Protein kinase C epsilon type (Homo sapiens) (UniProt Q02156); settings: at 1 µM
[9] = target: Ribosomal protein S6 kinase alpha-6 (Homo sapiens) (UniProt Q9UK32); settings: at 500 nM
[10] = target: NUAK family SNF1-like kinase 2 (Homo sapiens) (UniProt Q9H093); settings: at 500 nM
[11] = target: T1, Tyrosine-protein kinase Blk (Homo sapiens, UniProt P51451); settings: at 500 nM
[12] = target: T2, Leucine-rich repeat serine/threonine-protein kinase 2 (Homo sapiens, UniProt Q5S007); settings: at 500 nM
[13] = target: Mitogen-activated protein kinase kinase kinase 11 (Homo sapiens) (UniProt Q16584); settings: at 500 nM
[14] = target: Protein kinase C beta type (Homo sapiens) (UniProt P05771); settings: at 500 nM
[15] = target: Serine/threonine-protein kinase N2 (Homo sapiens) (UniProt Q16513); settings: at 500 nM
[16] = target: Ribosomal protein S6 kinase alpha-1 (Homo sapiens) (UniProt Q15418); settings: at 500 nM
[17] = target: Mitotic checkpoint serine/threonine-protein kinase BUB1 (Homo sapiens) (UniProt O43683); settings: at 1 µM
[18] = target: Serine/threonine-protein kinase WNK2 (Homo sapiens) (UniProt Q9Y3S1); settings: at 1 µM
[19] = target: Serine/threonine-protein kinase WNK4 (Homo sapiens) (UniProt Q96J92); settings: at 1 µM
[20] = target: Epidermal growth factor receptor (Homo sapiens, UniProt P00533); settings: at 1 µM
[21] = target: Alpha-1D adrenergic receptor (Homo sapiens, UniProt P25100); settings: at 1 µM
[22] = target: Alpha-2C adrenergic receptor (Homo sapiens, UniProt P18825); settings: at 1 µM
Histamine H3 receptor = Histamine H3 receptor (Homo sapiens, UniProt Q9Y5N1); settings: at 1 µM
[23] = target: 5'-AMP-activated protein kinase catalytic subunit alpha-1 (Homo sapiens, UniProt Q13131); settings: at 10 µM
[24] = target: Mitogen-activated protein kinase 14 (Homo sapiens, UniProt Q16539); settings: at 1 µM
[25] = target: Serine/threonine-protein kinase TAO3 (Homo sapiens) (UniProt Q9H2K8); settings: at 1 µM
[26] = tested on: Phosphatidylinositol 4,5-bisphosphate 3-kinase catalytic subunit alpha isoform (Homo sapiens), P42336 [Q546K]; settings: at 1 µM
[27] = target: G protein-coupled receptor kinase 3 (Homo sapiens) (UniProt P35626); settings: at 1 µM
[28] = target: Protein polybromo-1 (Homo sapiens) (UniProt Q86U86)
[29] = target: SWI/SNF-related matrix-associated actin-dependent regulator of chromatin subfamily A member 4 (Homo sapiens) (UniProt P51532)
[30] = target: SNF-related serine/threonine-protein kinase (Homo sapiens) (UniProt Q9NRH2); settings: at 1 µM
[31] = target: Phosphatidylinositol 4-phosphate 5-kinase type-1 alpha (Homo sapiens) (UniProt Q99755); settings: at 1 µM
[32] = target: Protein kinase C iota type (Homo sapiens) (UniProt P41743); settings: at 1 µM
[33] = target: Muscarinic acetylcholine receptor M4 (Homo sapiens) (UniProt P08173); settings: at 10 µM
[34] = target: Serine/threonine-protein kinase Nek1 (Homo sapiens) (UniProt Q96PY6); settings: at 1 µM
[35] = target: Interferon-induced, double-stranded RNA-activated protein kinase (Homo sapiens) (UniProt P19525); settings: at 1 µM
[36] = target: Serine/threonine-protein kinase 38-like (Homo sapiens, UniProt Q9Y2H1); settings: at 1 µM
[37] = target: Tyrosine-protein kinase JAK3 (Homo sapiens) (UniProt P52333); settings: at 10 µM
[38] = target: cAMP-dependent protein kinase catalytic subunit alpha (Homo sapiens, UniProt P17612); settings: at 10 µM
[39] = target: cAMP-dependent protein kinase catalytic subunit beta (Homo sapiens) (UniProt P22694); settings: at 10 µM
[40] = target: Ribosomal protein S6 kinase alpha-1 (Homo sapiens) (UniProt Q15418); settings: at 1 µM
[41] = target: Serine/threonine-protein kinase PLK1 (Homo sapiens, UniProt P53350); settings: at 10 µM
[42] = tested on: Receptor-type tyrosine-protein kinase FLT3 (Homo sapiens), P36888 [K663Q]; settings: at 1 µM
[43] = target: Ribosomal protein S6 kinase alpha-4 (Homo sapiens) (UniProt O75676); settings: at 1 µM
[44] = target: Mitogen-activated protein kinase kinase kinase 7 (Homo sapiens) (UniProt O43318); settings: at 0.1 µM
[45] = target: T1, Tyrosine-protein kinase Blk; settings: at 10 µM
[46] = target: TGF-beta receptor type-1 (Homo sapiens) (UniProt P36897); settings: at 10 µM
[47] = target: Phosphatidylinositol 4,5-bisphosphate 3-kinase catalytic subunit beta isoform (Homo sapiens) (UniProt P42338); settings: at 10 µM
[48] = target: Cyclin-dependent kinase 4 (Homo sapiens) (UniProt P11802); settings: at 1 µM
[49] = tested on: Receptor-type tyrosine-protein kinase FLT3 (Homo sapiens), P36888 [D835V]; settings: at 1 µM
[50] = target: T3, High affinity nerve growth factor receptor (Homo sapiens, UniProt P04629); settings: at 1 µM
[51] = target: T2, Leucine-rich repeat serine/threonine-protein kinase 2; settings: at 1 µM
[52] = target: Phosphatidylinositol 4-phosphate 3-kinase C2 domain-containing subunit beta (Homo sapiens) (UniProt O00750); settings: at 1 µM
[53] = target: Phosphatidylinositol 3-kinase catalytic subunit type 3 (Homo sapiens) (UniProt Q8NEB9); settings: at 1 µM
[54] = target: Phosphatidylinositol 4,5-bisphosphate 3-kinase catalytic subunit gamma isoform (Homo sapiens, UniProt P48736); settings: at 1 µM
[55] = target: Cyclin-G-associated kinase (Homo sapiens) (UniProt O14976)
[56] = target: Phosphatidylinositol 3-kinase C2 domain-containing subunit gamma (Homo sapiens) (UniProt O75747); settings: at 10 µM
D(1B) dopamine receptor = D(1B) dopamine receptor (Homo sapiens, UniProt P21918); settings: at 10 µM
[57] = target: Serine/threonine-protein kinase Nek3 (Homo sapiens) (UniProt P51956); settings: at 1 µM
[58] = target: Phosphatidylinositol 4,5-bisphosphate 3-kinase catalytic subunit delta isoform (Homo sapiens) (UniProt O00329); settings: at 1 µM
[59] = target: MAP kinase-interacting serine/threonine-protein kinase 2 (Homo sapiens, UniProt Q9HBH9); settings: at 10 µM
Aurora kinase B = Aurora kinase B (Homo sapiens, UniProt Q96GD4); settings: at 10 µM
[60] = target: Serine/threonine-protein kinase 10 (Homo sapiens) (UniProt O94804); settings: at 10 µM
[61] = target: Ephrin type-A receptor 3 (Homo sapiens) (UniProt P29320); settings: at 10 µM
[62] = target: Muscle, skeletal receptor tyrosine-protein kinase (Homo sapiens) (UniProt O15146); settings: at 10 µM
[63] = target: Macrophage colony-stimulating factor 1 receptor (Homo sapiens) (UniProt P07333); settings: at 10 µM
[64] = target: Receptor-type tyrosine-protein kinase FLT3 (Homo sapiens, UniProt P36888); settings: at 10 µM
[65] = target: Mast/stem cell growth factor receptor Kit (Homo sapiens, UniProt P10721); settings: at 10 µM
[66] = target: Platelet-derived growth factor receptor beta (Homo sapiens, UniProt P09619); settings: at 10 µM
[67] = target: T1, Tyrosine-protein kinase Blk; settings: at 10 µM; remark: listed apart in the source
[68] = target: Tyrosine-protein kinase FRK (Homo sapiens, UniProt P42685); settings: at 10 µM
[69] = target: Angiopoietin-1 receptor (Homo sapiens) (UniProt Q02763); settings: at 10 µM
[70] = target: T3, High affinity nerve growth factor receptor; settings: at 10 µM
[71] = target: BDNF/NT-3 growth factors receptor (Homo sapiens) (UniProt Q16620); settings: at 10 µM
[72] = target: NT-3 growth factor receptor (Homo sapiens, UniProt Q16288); settings: at 10 µM

Chains of the proteins cited; added tags and fusions are not shown. Lines headed by an entry give the natural chain unless they say otherwise; changes in a name come on top.
UniProt Q5S007: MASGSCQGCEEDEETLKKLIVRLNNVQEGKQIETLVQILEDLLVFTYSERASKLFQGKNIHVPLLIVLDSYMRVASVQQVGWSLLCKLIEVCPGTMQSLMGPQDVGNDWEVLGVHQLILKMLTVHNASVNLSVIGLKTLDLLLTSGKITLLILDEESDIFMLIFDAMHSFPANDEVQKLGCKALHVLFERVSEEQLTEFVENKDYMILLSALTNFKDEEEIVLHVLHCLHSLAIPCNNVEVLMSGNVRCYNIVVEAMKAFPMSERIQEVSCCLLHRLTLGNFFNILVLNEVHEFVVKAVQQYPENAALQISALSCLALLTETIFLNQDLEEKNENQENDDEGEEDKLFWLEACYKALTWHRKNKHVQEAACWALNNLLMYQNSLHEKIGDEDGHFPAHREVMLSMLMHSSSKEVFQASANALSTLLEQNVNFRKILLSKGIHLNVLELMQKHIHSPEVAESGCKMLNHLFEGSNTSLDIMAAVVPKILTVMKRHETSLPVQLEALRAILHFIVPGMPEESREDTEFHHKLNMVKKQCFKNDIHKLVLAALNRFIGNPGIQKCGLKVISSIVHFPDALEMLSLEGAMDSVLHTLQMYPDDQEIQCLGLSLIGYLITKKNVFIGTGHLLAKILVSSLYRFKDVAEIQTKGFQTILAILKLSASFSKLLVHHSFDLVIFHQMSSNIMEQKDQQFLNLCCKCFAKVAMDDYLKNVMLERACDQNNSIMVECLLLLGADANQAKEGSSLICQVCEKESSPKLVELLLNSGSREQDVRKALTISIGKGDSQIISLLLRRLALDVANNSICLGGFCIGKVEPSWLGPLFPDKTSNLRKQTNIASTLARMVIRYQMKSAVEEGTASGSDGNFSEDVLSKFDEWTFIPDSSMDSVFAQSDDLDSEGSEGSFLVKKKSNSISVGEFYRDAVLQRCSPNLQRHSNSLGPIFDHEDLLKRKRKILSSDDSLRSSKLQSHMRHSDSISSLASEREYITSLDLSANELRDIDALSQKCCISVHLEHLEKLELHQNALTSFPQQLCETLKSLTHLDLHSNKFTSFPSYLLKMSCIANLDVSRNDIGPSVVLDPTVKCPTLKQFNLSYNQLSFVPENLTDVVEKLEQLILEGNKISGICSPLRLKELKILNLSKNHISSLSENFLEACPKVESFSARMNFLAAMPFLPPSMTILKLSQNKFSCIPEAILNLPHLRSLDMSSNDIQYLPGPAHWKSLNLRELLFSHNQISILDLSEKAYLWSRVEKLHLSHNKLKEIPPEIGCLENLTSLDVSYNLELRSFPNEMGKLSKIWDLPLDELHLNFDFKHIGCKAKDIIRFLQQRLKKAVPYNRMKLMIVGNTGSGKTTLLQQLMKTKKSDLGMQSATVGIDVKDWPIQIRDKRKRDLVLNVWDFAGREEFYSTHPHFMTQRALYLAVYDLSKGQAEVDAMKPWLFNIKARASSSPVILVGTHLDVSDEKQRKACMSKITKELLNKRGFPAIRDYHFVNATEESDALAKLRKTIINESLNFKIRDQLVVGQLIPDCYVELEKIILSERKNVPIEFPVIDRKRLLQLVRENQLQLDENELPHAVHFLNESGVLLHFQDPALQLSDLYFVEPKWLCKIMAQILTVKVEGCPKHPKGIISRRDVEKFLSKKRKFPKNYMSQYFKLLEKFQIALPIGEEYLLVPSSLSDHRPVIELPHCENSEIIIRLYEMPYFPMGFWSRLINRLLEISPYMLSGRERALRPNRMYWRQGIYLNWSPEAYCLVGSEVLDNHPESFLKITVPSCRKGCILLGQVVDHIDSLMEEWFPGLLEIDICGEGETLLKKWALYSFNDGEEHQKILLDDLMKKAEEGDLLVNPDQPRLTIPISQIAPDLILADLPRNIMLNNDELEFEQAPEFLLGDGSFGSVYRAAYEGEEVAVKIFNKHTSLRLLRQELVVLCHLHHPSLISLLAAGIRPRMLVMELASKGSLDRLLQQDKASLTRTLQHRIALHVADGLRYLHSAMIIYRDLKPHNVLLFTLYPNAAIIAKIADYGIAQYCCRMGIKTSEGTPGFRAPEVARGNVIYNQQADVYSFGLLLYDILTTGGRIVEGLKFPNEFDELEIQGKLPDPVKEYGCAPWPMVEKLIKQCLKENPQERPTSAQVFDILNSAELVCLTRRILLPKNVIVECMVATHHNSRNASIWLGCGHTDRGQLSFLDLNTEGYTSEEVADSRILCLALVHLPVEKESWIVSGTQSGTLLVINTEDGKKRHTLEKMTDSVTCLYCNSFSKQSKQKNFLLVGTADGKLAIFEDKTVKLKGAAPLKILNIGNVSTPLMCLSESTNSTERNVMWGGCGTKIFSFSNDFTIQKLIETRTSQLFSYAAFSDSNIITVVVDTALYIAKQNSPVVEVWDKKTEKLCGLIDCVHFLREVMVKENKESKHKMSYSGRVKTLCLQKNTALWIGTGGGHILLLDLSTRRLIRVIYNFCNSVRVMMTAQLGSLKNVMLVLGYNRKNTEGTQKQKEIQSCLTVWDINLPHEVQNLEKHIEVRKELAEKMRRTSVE
UniProt P05771, whole entry, looked up: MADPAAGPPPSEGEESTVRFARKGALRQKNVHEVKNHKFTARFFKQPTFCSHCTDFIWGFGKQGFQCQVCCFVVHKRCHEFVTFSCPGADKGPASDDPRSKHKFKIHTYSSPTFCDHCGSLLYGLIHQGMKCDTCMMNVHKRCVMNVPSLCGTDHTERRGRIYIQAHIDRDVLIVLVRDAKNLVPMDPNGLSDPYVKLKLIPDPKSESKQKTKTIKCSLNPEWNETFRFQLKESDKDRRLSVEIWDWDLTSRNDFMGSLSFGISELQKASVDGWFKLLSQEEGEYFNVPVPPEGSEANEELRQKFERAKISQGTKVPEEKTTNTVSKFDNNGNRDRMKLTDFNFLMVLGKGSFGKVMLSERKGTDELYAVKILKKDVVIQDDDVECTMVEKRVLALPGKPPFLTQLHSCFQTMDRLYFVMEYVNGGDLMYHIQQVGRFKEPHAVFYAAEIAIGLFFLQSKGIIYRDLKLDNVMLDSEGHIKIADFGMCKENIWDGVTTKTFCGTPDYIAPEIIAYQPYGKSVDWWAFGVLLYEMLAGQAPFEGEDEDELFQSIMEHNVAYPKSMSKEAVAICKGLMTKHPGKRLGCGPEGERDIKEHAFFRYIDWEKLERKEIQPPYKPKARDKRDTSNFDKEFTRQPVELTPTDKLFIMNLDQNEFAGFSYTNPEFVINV
UniProt P25100, whole entry: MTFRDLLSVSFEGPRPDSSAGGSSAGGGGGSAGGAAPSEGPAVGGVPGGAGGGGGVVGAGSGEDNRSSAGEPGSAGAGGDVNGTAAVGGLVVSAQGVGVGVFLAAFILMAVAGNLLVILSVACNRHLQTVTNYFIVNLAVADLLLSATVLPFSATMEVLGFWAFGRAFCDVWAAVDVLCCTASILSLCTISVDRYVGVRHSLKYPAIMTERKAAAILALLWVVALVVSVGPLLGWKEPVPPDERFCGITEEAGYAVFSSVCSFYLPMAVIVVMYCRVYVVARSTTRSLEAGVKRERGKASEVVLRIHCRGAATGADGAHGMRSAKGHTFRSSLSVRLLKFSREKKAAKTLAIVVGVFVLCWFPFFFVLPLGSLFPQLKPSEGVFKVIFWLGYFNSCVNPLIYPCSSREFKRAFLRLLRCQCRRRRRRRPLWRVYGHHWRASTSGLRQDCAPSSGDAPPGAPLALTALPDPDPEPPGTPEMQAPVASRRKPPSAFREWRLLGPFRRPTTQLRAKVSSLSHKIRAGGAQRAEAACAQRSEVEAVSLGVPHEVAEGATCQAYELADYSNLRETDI
UniProt Q13131: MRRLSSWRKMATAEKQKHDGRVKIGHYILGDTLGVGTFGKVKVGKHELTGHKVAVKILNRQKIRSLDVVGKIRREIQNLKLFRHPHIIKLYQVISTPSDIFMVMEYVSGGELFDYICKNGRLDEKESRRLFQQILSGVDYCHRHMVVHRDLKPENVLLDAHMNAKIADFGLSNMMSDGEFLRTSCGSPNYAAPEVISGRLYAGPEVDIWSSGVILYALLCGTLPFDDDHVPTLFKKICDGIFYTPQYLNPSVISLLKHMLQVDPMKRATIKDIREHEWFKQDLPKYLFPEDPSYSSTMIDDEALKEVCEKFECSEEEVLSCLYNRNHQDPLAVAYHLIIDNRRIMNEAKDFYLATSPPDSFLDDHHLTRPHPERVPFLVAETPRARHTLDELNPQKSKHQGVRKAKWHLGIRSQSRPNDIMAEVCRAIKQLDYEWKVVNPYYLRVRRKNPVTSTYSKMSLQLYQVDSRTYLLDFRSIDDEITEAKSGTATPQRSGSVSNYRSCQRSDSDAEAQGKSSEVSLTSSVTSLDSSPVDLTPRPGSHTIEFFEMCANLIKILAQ
UniProt P36897: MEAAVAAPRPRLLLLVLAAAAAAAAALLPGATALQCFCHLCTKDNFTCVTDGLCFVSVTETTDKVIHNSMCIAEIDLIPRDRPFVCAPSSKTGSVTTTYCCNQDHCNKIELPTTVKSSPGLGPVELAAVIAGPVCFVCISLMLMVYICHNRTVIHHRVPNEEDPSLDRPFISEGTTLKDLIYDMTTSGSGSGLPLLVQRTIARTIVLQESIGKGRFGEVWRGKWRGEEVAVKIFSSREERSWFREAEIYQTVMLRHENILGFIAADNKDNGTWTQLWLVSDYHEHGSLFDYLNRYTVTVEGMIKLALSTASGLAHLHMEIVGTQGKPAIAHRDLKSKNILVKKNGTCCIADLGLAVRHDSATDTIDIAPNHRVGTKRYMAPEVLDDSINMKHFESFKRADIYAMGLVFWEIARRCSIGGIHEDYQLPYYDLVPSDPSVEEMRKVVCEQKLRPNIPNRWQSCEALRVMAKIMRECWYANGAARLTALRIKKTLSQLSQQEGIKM
UniProt O00329: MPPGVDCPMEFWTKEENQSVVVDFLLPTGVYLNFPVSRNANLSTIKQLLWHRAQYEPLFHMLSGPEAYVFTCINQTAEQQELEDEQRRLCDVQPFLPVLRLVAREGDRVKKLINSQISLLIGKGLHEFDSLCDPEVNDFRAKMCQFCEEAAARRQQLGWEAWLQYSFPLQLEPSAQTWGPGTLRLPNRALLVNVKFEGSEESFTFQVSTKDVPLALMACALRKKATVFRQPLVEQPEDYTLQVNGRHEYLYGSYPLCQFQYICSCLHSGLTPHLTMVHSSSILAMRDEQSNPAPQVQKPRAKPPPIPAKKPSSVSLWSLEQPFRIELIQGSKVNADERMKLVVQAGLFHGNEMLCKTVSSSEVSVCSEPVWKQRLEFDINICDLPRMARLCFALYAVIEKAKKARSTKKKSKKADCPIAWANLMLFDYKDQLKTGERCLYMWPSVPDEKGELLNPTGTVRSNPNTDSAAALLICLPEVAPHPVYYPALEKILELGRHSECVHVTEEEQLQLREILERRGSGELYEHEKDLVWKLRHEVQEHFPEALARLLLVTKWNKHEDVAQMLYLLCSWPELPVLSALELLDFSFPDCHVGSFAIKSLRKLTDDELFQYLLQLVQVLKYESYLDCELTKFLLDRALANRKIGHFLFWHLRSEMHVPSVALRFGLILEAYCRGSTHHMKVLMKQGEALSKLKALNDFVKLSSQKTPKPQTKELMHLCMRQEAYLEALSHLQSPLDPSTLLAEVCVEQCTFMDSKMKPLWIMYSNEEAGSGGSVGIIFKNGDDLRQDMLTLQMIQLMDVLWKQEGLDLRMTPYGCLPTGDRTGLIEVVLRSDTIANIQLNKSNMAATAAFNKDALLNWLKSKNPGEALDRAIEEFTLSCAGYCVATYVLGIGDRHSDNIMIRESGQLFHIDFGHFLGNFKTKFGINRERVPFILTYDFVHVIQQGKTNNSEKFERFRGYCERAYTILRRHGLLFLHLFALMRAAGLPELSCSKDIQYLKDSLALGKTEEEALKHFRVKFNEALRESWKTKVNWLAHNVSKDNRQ
UniProt P42685: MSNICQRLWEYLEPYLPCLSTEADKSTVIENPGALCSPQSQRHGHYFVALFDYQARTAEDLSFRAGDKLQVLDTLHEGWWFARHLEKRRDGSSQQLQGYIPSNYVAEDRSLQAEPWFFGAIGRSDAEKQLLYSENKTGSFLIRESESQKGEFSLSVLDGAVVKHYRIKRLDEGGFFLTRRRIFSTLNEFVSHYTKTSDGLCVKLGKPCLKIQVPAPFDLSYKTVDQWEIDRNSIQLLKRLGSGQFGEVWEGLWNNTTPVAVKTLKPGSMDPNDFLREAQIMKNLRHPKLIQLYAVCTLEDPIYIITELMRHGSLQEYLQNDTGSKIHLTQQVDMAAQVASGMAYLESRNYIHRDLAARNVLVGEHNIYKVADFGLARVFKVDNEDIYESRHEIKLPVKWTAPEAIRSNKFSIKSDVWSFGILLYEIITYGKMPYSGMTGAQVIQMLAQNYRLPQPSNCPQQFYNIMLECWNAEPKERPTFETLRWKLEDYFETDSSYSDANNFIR

Compound: CN(C)C(=O)Cn1cc(-c2nc([C@@](C)(c3ccc(-c4cnc(N)nc4)cc3)C3CC3)no2)cn1
- % of inhibition [1]: 61%
- % of control [2]: 0%
- % of control [3]: 0%
- % of control [4]: 56%
- % of inhibition [5]: 64%
- % of control [6]: 0%
- % of control [7]: 0%
- % of control [8]: 44%

Compound: NS(=O)(=O)c1cc(NC(=O)Cc2ccccc2)ccc1Oc1cccc(Cl)c1 [BAY-1797]
- % of control [17]: 1.6%
- % of control [18]: 0%
- % of control [19]: 0%
- % of control [20]: 47%

Compound: C[C@H](c1ccc(F)cc1)N(Cc1cccc(C(=O)O)c1)C(=O)c1cnc2ccccc2c1 [PF-05105679]
- % of control [24]: 0%
- % of control [25]: 41%
- % of control [26]: 42%
- % of control [27]: 40%

Compound: O=C(/C=C/N1C[C@H]2C[C@@H]1CN2c1ccccn1)c1ccccc1O
- dTm [28]: 9.1 K
- dTm [29]: 7 K

Compound: O=C(Nc1ccc(Oc2ccc(F)cc2)cc1)N1CCc2ncccc2[C@H]1c1ccc(F)cc1
- % of control [42]: 41%

Compound: N#CC1(c2ccccn2)CCN(Cc2cc(C(=O)O)c(=O)n3ccccc23)CC1 [MSD-M1PAM]
- % of control [45]: 49%
- % of control [46]: 41%
- % of control [47]: 36%

Compound: COc1cccc(CNC(=O)c2nc3scc(COCc4ccc(C(=O)O)cc4)c3c(=O)[nH]2)c1
- % of control [48]: 43.5%
- % of control [49]: 44.2%
- % of control [50]: 46.7%
- % of control [51]: 43%

Compound: Cc1nc(-c2cn3c(n2)-c2ccc(-c4cnn(C(C)(C)C(N)=O)c4)cc2OCC3)n(C(C)C)n1
- % of control [52]: 80.4%
- % of control [53]: 69.9%
- % of control [54]: 90.6%

Compound: CCOc1ccn(-c2ccc(F)cc2)c(=O)c1C(=O)Nc1ccc(Oc2ccnc(N)c2Cl)c(F)c1 [BMS-777607]
- % of control [59]: 0.75%
- % of control (Aurora kinase B): 0%
- % of control [60]: 0%
- % of control [61]: 0.1%
- % of control [62]: 0%
- % of control [63]: 0.8%
- % of control [64]: 0.05%
- % of control [65]: 0%
- % of control [66]: 0.7%
- % of control [67]: 0.35%
- % of control [68]: 0.55%
- % of control [69]: 0.15%
- % of control [70]: 0.55%
- % of control [71]: 0.1%
- % of control [72]: 0.1%

Other lines, results leading:

- % of inhibition [9]: 60%
- % of inhibition [10]: 61%
- % of inhibition [11]: 43%
- % of inhibition [12]: 66%
- % of inhibition [13]: 51%
- % of inhibition [14]: 69%
- % of inhibition [15]: 52%
- % of inhibition [16]: 74%
Compound: CN(C)C(=O)/C(C#N)=C/c1ccc(-c2nc3cnc4[nH]ccc4c3n2C2CCCCC2)o1

- % of control [21]: 59%
- % of control [22]: 67%
- % of control (Histamine H3 receptor): 93%
- % of inhibition [23]: 10%
Compound: COc1cc2c(NC3CCN(C(C)C)CC3)nc(N3CCC(F)(F)CC3)nc2cc1OCCCN1CCCC1

- % of control [30]: 69%
- % of control [31]: 70%
- % of control [32]: 68%
Compound: Cc1c(C(=O)O)cc(-c2ccc(C3CCNCC3)cc2)c2ccc(-c3ccc(C(F)(F)F)cc3)cc12

- % of inhibition [33]: 49%
- % of control [34]: 40%
- % of control [35]: 46%
- % of control [36]: 41%
Compound: O=C1CCc2cc(Nc3cc(OC4CCOCC4)c([N+](=O)[O-])cc3Cl)ccc2N1

- % of control [37]: 3.2%
- % of control [38]: 4.2%
- % of control [39]: 6.4%
- % of control [40]: 20%
Compound: CC1=C(C(=O)Nc2cc3cn[nH]c3cc2F)C(c2ccc(C(F)(F)F)cc2)CC(=O)N1 (stereo not given)

- % of control [41]: 4.1%
Compound: CCOc1cc(N2CCC(O)CC2)ccc1Nc1ncc2c(n1)N(C1CCCC1)CCC(=O)N2C

- % of control [43]: 33.5%
Compound: CC(=O)C1=C(C)N(c2cccc(C(F)(F)F)c2)C(=O)N[C@@H]1c1ccc(C#N)nc1 [BAY-678]

- % of control [44]: < 50%
Compound: CNc1nc(Nc2cnn([C@H]3CCN(C4COC4)C[C@@H]3F)c2Cl)ncc1C(F)(F)F

- dTM [55]: 7.7 K
Compound: COc1cc(Nc2ccnc3ccc(Br)cc23)cc(OC)c1OC

- % of control [56]: 27%
Compound: CS(=O)(=O)N1CCN(Cc2cc3nc(-c4cccc5[nH]ncc45)nc(N4CCOCC4)c3s2)CC1

- % of inhibition (D(1B) dopamine receptor): 21.3%
- % of control [57]: 41%
- % of control [58]: 32%
Compound: N#Cc1ccc(Nc2ccc3[nH]c(=O)[nH]c3c2)c(Cl)c1

— ChEMBL document CHEMBL5212743, “Selectivity Literature for EUbOPEN Chemogenomics Library wave 3” (2023)
